Results taken from publication PMC6609384, “Pharmacokinetics of cucurbitacin B from Trichosanthes cucumerina L. in rats” (BMC Complementary and Alternative Medicine, 2019).

Amino acid sequences for entries named in this document (tags omitted). A change or cut given only in a name is not applied to a line headed by its entry.
UniProt P05804: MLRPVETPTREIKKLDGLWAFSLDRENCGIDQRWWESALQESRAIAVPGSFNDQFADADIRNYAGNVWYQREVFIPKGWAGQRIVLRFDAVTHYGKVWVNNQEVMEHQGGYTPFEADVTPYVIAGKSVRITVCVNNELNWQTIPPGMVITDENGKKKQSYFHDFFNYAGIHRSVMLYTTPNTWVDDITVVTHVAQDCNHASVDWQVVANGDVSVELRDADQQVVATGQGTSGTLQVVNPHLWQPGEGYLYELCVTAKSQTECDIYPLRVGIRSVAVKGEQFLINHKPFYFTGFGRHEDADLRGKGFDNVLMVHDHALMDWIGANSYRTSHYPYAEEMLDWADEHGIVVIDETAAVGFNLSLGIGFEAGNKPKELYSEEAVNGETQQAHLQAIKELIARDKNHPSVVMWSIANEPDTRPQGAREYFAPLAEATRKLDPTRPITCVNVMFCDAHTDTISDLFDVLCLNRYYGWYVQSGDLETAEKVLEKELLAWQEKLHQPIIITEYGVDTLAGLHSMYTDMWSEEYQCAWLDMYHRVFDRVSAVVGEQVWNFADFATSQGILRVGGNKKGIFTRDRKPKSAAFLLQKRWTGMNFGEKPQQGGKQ

Tests used:
[1] = Excretion study: recovery of unchanged cucurbitacin B in urine and feces; assay type: in vivo, male Wistar rats
Protocol: Cucurbitacin B solution in DMSO/water for injection was administered to the rats at different doses and routes (intravenous cucurbitacin B at 0.1 mg/kg, and oral cucurbitacin B at 2–4 mg/kg). All cucurbitacin B solution given to the animals was prepared freshly prior to the experiment. Each rat was anesthetized with 10% isoflurane by chamber induction method before intravenous administration or blood collection. Both approaches were conducted via lateral tail vein. The dose of cucurbitacin B for injection was calculated based on amount of cucurbitacin B in the solution to obtain an equivalent dose of 0.1 mg/kg. In the case of oral administration, a gavage needle was used to supply the pre-specified dose of cucurbitacin B at 2, and 4 mg/kg. For blood collection, pre-heparinized needles and syringes were used during the blood sampling process. Approximately 300 μL of blood sample was collected serially after cucurbitacin B administration at different time points as follows: 0.083 (5 min), 0.25 (15 min), 0.5 (30 min), 1, 2, 4, 8, 16, and 24 h. Collected blood samples were then centrifuged at 3000×g for 10 min to obtain plasma, and stored at − 20 °C until further process. After each blood sampling session, the rat was placed in the metabolic cage, then urine and feces were segregated and collected automatically by the functionality of cages at distinct periods of time comprehensive of 0–24, and 24–48 h. Measurement of urine volume and feces weight were completed right after sample collection, then they were stored at − 20 °C until analysis.
For urine samples, the volume of each sample was measured, mixed for 10 min, centrifuged at 3000×g for 10 min and each supernatant was collected. Fifty microliter of supernatant was mixed with 200 μL of methanol containing 25 ng of glycyrrhizic acid. The final mixture was centrifuged at 10,000×g for 10 min and 150 μL of supernatant from each sample was collected for further LC-MS/MS analysis.
The weight of each feces sample was measured, homogenized, and adjusted to the total volume of 10 mL by methanol. Centrifugation at 3000×g for 10 min was performed and then supernatant was collected from each sample. Fifty microliter of supernatant was mixed with 200 μL of methanol containing 25 ng of glycyrrhizic acid. The final mixture was centrifuged at 10,000×g for 10 min and 150 μL of supernatant from each sample was collected for further LC-MS/MS analysis.

[2] = target: β-glucuronidase (Escherichia coli, UniProt P05804); assay type: in vitro ADME; conditions: excreta samples, 1000 units, 15 min
Protocol: Excretion of unchanged cucurbitacin B was assessed by calculating the recovery compared to the given dose. […] Currently, there was no available cucurbitacin B metabolism profile, and glucuronide conjugated cucurbitacin B was proposed as a major metabolite. Other reports mentioned that the metabolic pathway of cucurbitacin derivatives, cucurbitacin D and I, were metabolized by glucuronidation reactions. Therefore, we incubated the excreta samples with β-glucuronidase from Escherichia coli (1000 units) for 15 min, the reaction was stopped by adding the methanol and then evaluated for unconjugated cucurbitacin B by LC-MS/MS. […] Metabolite screening was also performed by using Agilent 6540 UHD Accurate Mass TOF LC/MS (Santa Clara, United States) in positive ionization mode (data not shown). There were some interesting molecules, which were detected in urine and fecal samples including 835.2322, 319.1372, and 222.0799 Da. Precisely matching and characterizing possible metabolites will require future study. From current knowledge, we concluded that cucurbitacin B was not metabolized by direct glucuronide conjugation. The molecule might be involved in the complex processes of phase I combined with phase II enzymatic reactions.

[3] = cited from earlier work
[4] = cited from earlier work; remark: listed apart in the source

## Cucurbitacin B
[1]; 0.1 mg/kg IV
  Recovery of unchanged compound, feces at 0-24 h: < 1.00%
  Recovery of unchanged compound, feces at 24-48 h: < 1.00%
  Recovery of unchanged compound, urine at 0-24 h: < 1.00%
  Recovery of unchanged compound, urine at 24-48 h: < 1.00%
[1]; 2 mg/kg PO
  Recovery of unchanged compound, feces at 0-24 h: < 1.00%
  Recovery of unchanged compound, feces at 24-48 h: < 1.00%
  Recovery of unchanged compound, urine at 0-24 h: < 1.00%
  Recovery of unchanged compound, urine at 24-48 h: < 1.00%
[1]; 4 mg/kg PO
  Recovery of unchanged compound, feces at 0-24 h: < 1.00%
  Recovery of unchanged compound, feces at 24-48 h: < 1.00%
  Recovery of unchanged compound, urine at 0-24 h: < 1.00%
  Recovery of unchanged compound, urine at 24-48 h: < 1.00%
[1]; excreta 0–48 h after dosing, all doses
  unchanged cucurbitacin B in urine and feces, share of administered dose: less than 1%
[2]
  cucurbitacin B concentration after β-glucuronidase reaction compared to without reaction: not significantly different
[3]
  solubility in water: slightly soluble
[4]
  previously reported half-life: 2.50 to 3.19 h
[4]; rats, 20 mg/kg in 0.5% CMC
  elimination half-life: approximately 2.5 h
  time to highest concentration: ≤ 1.75 h
[4]; suspensions in carboxymethylcellulose
  previously reported Tmax: 1.75 to 2.41 h
